## Antibody variant affinities, Ab-14 light chain, assay B

Values reported by Li et al. 2023, doi:10.1038/s41467-023-39022-2 (FLAb copy).

Antigen: PDVDLGDISGINAS, a 14-residue peptide of the SARS-CoV-2 spike HR2 region.

The variants keep the heavy chain, the linker and the frameworks of Ab-14 (scFv order VH, a (GGGGS)3 linker, VL).
VH: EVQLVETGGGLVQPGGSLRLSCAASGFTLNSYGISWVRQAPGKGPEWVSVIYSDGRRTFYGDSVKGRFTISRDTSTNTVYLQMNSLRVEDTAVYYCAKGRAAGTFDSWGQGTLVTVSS
VL: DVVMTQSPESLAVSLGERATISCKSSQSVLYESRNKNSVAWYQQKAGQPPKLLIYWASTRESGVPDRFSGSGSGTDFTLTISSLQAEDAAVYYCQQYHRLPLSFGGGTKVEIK

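This is the validation round: designs drawn from the data on random variants, tested in the same kind of assay. Their group label is 14L_GP_Gen (GP: Gaussian process model; Gen: genetic algorithm; a sequence that several methods proposed may carry one label only). AlphaSeq pools MATa yeast showing the antibodies with MATalpha yeast showing the peptide. Binding brings cells together so that they mate, and sequencing counts the barcode pairs among the diploids. The ratio of observed to expected reads was calibrated, replicate by replicate, on BCL2-family standards whose Kd was known from biolayer interferometry. There are six technical replicates.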

Substitutions are numbered in sequence along the VL above, starting at 1 (not Kabat).
Affinities are written as log10 Kd with Kd in nM; a lower number is a better binder.
Where no diploid with the target was found in that replicate, the entry reads "nd": below detection, most likely a poor binder, though not proof of it.
The parent sequence was in this pool as ten entries: three were never detected, three once, and four in most replicates, with averages from 0.34 to 2.37.
The authors' rule: three or more of the six replicates give a measured affinity, fewer mean a poor binder.
A sequence measured in both rounds can read differently, since the two assays cover different ranges.
Three control strains display no target. For all light chain designs, 4% of the pairings with them gave a signal, with a median of 2.64 and one signal in twenty below 1.59, so weak values seen in few replicates may be background. For each scFv, signals with the empty controls are counted beside the result, with their mean in brackets.

changes	log10 Kd (nM) by replicate	control signals
S25L+V29H+S38N+W56A	0.24 / 0.24 / 0.26 / 0.06 / 0.07 / 0.53	1/18 (3.28)
S25L+K36S+S38N+W56E	-0.16 / -0.16 / -0.12 / -0.45 / -0.26 / -0.14	2/18 (3.67)
S25V+L30P+W56N+E61C	0.49 / 0.23 / 0.15 / 0.08 / 0.32 / 0.23	0/18
S25F+S26P+W56N+T59Q	-0.13 / -0.13 / -0.39 / -0.34 / -0.18 / -0.08	1/18 (2.51)
S25L+V29H+N35Q+W56N	0.30 / 0.02 / 0.17 / -0.06 / 0.11 / 0.05	3/18 (2.44)
S25L+S26Q+Y31M+W56N	-0.02 / -0.13 / -0.24 / -0.32 / -0.23 / 0.04	0/18
S25M+S26Q+V29E+W56N+T59Q	0.95 / 0.91 / 0.88 / 0.57 / 0.53 / 0.87	2/18 (2.80)
S25L+S26V+W56D+E61C	-0.01 / -0.32 / -0.28 / -0.34 / -0.27 / -0.10	0/18
S25V+N35L+W56N	0.25 / 0.12 / 0.06 / -0.04 / -0.17 / 0.22	2/18 (2.76)
S25L+V29N+W56N+S62K	-0.06 / -0.21 / -0.22 / -0.44 / -0.33 / -0.27	1/18 (2.58)
S25V+V29A+W56N	0.72 / 0.51 / 0.43 / 0.71 / 0.60 / 0.69	2/18 (2.57)
S25L+N35M+W56N+E61Y	-0.08 / -0.30 / -0.41 / -0.42 / -0.53 / -0.15	1/18 (3.64)
S25L+S26Y+V29E+W56N	-0.04 / -0.22 / -0.32 / -0.39 / -0.29 / -0.10	0/18
S25L+V29W+W56D+T59Q	0.72 / 0.92 / 0.63 / 0.45 / 0.21 / 0.45	0/18
L30P+W56N+T59Q	0.47 / 0.57 / 0.66 / 0.70 / 0.92 / 0.68	1/18 (4.23)
S25L+S26Q+V29F+W56E+E61L	1.15 / 1.02 / 0.93 / 0.72 / 0.84 / 0.86	2/18 (2.54)
S25L+V29W+W56E+E61L	0.06 / -0.17 / -0.17 / -0.20 / -0.05 / 0.03	0/18
S25M+S26E+V29E+W56N+T59Q	0.33 / 0.18 / 0.18 / 0.27 / 0.76 / 0.39	2/18 (2.65)
S25L+S26V+V29Q+W56N	0.05 / -0.13 / -0.04 / -0.28 / -0.07 / -0.17	1/18 (1.75)
S25L+S26P+S38N+W56S	-0.08 / -0.20 / -0.27 / -0.51 / -0.17 / -0.04	1/18 (2.41)
S25I+V29D+W56N	0.46 / 0.25 / 0.43 / 0.44 / 0.43 / 0.36	1/18 (2.49)
S25L+Q27E+V29N+W56E	0.95 / 0.76 / 0.55 / 0.66 / 0.93 / 1.02	1/18 (4.53)
S25L+S26P+V29H+W56Q+E61L	1.81 / 1.63 / 0.82 / 1.43 / 1.83 / 1.53	2/18 (2.87)
S25L+S26Q+V29C+W56N	-0.10 / -0.21 / -0.24 / -0.12 / -0.42 / 0.09	2/18 (2.63)
S25L+W56N+Q96M	0.65 / 0.57 / 0.31 / 0.43 / 0.31 / 0.61	0/18
S25L+S26P+L30P+W56D	2.94 / 1.13 / 1.46 / 0.76 / 0.76 / 0.86	1/18 (2.88)
S25F+K36S+W56N	-0.02 / -0.02 / -0.12 / -0.22 / -0.20 / -0.13	3/18 (2.94)
S25L+K36A+W56N	0.27 / 0.12 / 0.11 / -0.06 / 0.48 / 0.26	0/18
S25L+S26E+V29Q+L30E+W56N+T59Q	-0.08 / -0.07 / -0.29 / -0.60 / -0.17 / -0.19	0/18
V29D+L30P+W56E	0.34 / 0.00 / 0.06 / 0.14 / -0.01 / 0.41	1/18 (2.84)
S25L+S26P+W56N+S62Q	0.13 / -0.10 / 0.18 / -0.21 / -0.15 / 0.18	0/18
S25L+Q27G+V29M+W56N+E61L	-0.21 / -0.46 / -0.46 / -0.46 / -0.71 / -0.21	1/18 (1.53)
S25L+S26Q+L30P+W56N+T59Q	nd / nd / nd / nd / nd / nd	0/18
S25L+L30P+W56N	-0.09 / -0.20 / -0.09 / -0.35 / -0.38 / -0.14	2/18 (2.58)
S25V+V29W+W56E	-0.41 / -0.37 / -0.48 / -0.56 / -0.53 / -0.44	1/18 (2.52)

Excerpt, the first 3 entries:

| changes | log10 Kd (nM) by replicate | control signals |
|---|---|---|
| S25L+V29H+S38N+W56A | 0.24 / 0.24 / 0.26 / 0.06 / 0.07 / 0.53 | 1/18 (3.28) |
| S25L+K36S+S38N+W56E | -0.16 / -0.16 / -0.12 / -0.45 / -0.26 / -0.14 | 2/18 (3.67) |
| S25V+L30P+W56N+E61C | 0.49 / 0.23 / 0.15 / 0.08 / 0.32 / 0.23 | 0/18 |